Sequences of proteins named here, by UniProt entry; tags and fusion partners are left off.
UniProt P11712, whole entry, looked up: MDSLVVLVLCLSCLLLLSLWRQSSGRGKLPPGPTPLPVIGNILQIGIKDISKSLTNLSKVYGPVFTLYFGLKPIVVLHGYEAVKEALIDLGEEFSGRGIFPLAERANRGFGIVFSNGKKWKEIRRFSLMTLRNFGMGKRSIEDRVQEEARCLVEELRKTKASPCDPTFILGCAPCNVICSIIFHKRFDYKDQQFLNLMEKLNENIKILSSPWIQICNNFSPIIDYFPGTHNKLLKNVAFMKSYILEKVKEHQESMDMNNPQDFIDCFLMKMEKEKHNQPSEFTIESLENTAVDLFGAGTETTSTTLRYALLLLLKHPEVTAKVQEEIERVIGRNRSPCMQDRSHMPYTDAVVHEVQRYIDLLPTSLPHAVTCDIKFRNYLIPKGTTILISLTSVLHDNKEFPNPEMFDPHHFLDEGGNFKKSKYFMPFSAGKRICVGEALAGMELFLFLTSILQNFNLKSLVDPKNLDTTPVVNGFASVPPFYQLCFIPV

Only a part is listed here, and it is no random draw. Activity calls are given as the source filed them.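 The calls were made as follows: active = activation factor of 2 or more for CYP2C9 at a 5 µM dose; inactive = the rest.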
Each compound was assayed against Cytochrome P450 2C9 (Homo sapiens) (UniProt P11712) (assay: enhancers of cytochrome P450 2C9 turnover – biochemical, luminescence, primary screen (AID 1024;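 also: 0 = sulfaphenazole-blocked wells and 1 = vehicle-only wells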)). Conditions: recombinant CYP2C9, luciferin-H conversion, at 5 µM, active compounds read high, factor 1 = untreated enzyme, 0 = blocked.
In the case of `CCN(CC)C(=S)SC(NC=O)C(Cl)(Cl)Cl` (stereo not given), the activation factor is reported as inactive: 1.1. With `O=C(OC1CN2CCC1CC2)C12CC3CC(CC(C3)C1)C2` (stereo not given) the activation factor was inactive: 1.2. `O=C(COc1ccccc1)OC1CN2CCC1CC2` (stereo not given) was tested, and the activation factor was inactive: 1.1. `COP1(=S)c2c(C)nn(CCC#N)c2N=C(c2ccc(F)cc2)N1C` (stereo not given) was tested, and the activation factor was inactive: 0.7. For `Cc1nn(-c2ccccc2)c2c1P(=O)(N1CCOCC1)N(C)C(c1ccccc1)=N2` (stereo not given), the activation factor was inactive: 0.9. With `Cc1ccc(OCC(=O)OC2CN3CCC2CC3)cc1` (stereo not given) the activation factor was inactive: 1.1. `O=P1(Nc2ccc(Br)cn2)COc2ccccc2OC1` was tested, and the activation factor was inactive: 0.6. For `O=P1(Nc2ncccn2)COc2ccccc2OC1`, the activation factor was inactive: 1. With `Clc1n[nH]nc1-c1nn[nH][15n]1` the activation factor was inactive: 1. With `O=P1(Nc2ccccn2)COc2ccccc2OC1` the activation factor was inactive: 0.9. For `Cc1cccc(OCC(=O)OC2CN3CCC2CC3)c1` (stereo not given), the activation factor was inactive: 0.9. `CCOP1(=S)c2c(C)nn(CCC#N)c2N=C(c2ccccc2F)N1C` (stereo not given) was tested, and the activation factor was inactive: 0.4. With `O=P(Nc1nccs1)(c1ccccc1)c1nc2ccccc2s1` (stereo not given) the activation factor was inactive: 0.4. `CCOP1(=S)c2c(C)nn(CCC#N)c2N=C(c2ccc(F)cc2)N1C` (stereo not given) was tested, and the activation factor was inactive: 0.5. For `O=[N+]([O-])c1ccc2c(c1)nnn2O`, the activation factor was inactive: 1.2. In the case of `CCOC(=O)NC(Sc1ccccc1)C(Cl)(Cl)Cl` (stereo not given), the activation factor is reported as inactive: 0.7. With `CCC(=O)N1C2C3N(C(=O)CC)C1C1N(C(=O)CC)C(C(N1C(=O)CC)N3C(=O)CC)N2C(=O)CC` the activation factor was inactive: 0.6. With `COC(=O)c1cc2c(s1)N=C(c1ccccc1)N(C)P2(=O)N1CCOCC1` (stereo not given) the activation factor was inactive: 0.9. With `O=P1(Nc2nc3ccc(Cl)cc3s2)COc2ccccc2O1` (stereo not given) the activation factor was inactive: 0.6. For `c1nnnn1CCn1cnnn1`, the activation factor was inactive: 1.1. For `O=P(Nc1nccs1)(c1ccccc1)c1ccccc1`, the activation factor was inactive: 0.7. `O=C(OC1CN2CCC1CC2)c1cccc(Cl)c1` (stereo not given) was tested, and the activation factor was inactive: 1.1. With `CCc1nc2c(n1)c1c(non1O)c1c2no[n+]1[O-]` the activation factor was inactive: 0.8. With `CC(=O)N1C2C3N(C(C)=O)C1C1N(C(C)=O)C(C(N1C(C)=O)N3C(C)=O)N2C(C)=O` the activation factor was inactive: 0.9. In the case of `O=[N+]([O-])c1cccc2n[nH]nc12`, the activation factor is reported as inactive: 1.2. With `CC1CCN(C(=O)Oc2c(Cl)cc(Cl)c3cccnc23)CC1` the activation factor was inactive: 1. `Oc1ccccc1CNc1ccccn1` was tested, and the activation factor was inactive: 1.1. In the case of `Cc1c2non([O-])c-2c(C)[n+](=O)[n+]1[O-]`, the activation factor is reported as inactive: 1. For `CC(C)CC(=O)NC(Sc1ccc(Cl)cc1)C(Cl)(Cl)Cl` (stereo not given), the activation factor was inactive: 0.5. For `CCOP(=O)(Nc1ccccc1)OCC`, the activation factor was inactive: 1.1.
